## scFv variants of Ab-95 (light chain) against a SARS-CoV-2 spike peptide

The measurements come from Engelhart et al. 2022 (doi:10.1038/s41597-022-01779-4) through the FLAb antibody collection.

All variants were tested on one target, the spike HR2 peptide PDVDLGDISGINAS (SARS-CoV-2).

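The starting antibody came from a phage panning campaign against this peptide. In library AAYL52, one, two or three CDR residues were substituted; doubles and triples were drawn at random. Affinity was read by AlphaSeq, a pooled yeast mating assay with surface-displayed partners. The frequency of each diploid, read from paired DNA barcodes, reflects how well the two displayed proteins bind. The ratio of observed to expected reads was calibrated, replicate by replicate, on BCL2-family standards whose Kd was known from biolayer interferometry. Mating was done three times.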

Ab-95 is the parent antibody, in scFv form: VH, then a 15-residue (Gly4Ser)3 linker, then VL. The heavy chain is unchanged in all variants.
VH: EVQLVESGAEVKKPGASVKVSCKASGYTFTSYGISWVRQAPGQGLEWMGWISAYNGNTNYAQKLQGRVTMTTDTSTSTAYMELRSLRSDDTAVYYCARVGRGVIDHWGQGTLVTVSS
VL: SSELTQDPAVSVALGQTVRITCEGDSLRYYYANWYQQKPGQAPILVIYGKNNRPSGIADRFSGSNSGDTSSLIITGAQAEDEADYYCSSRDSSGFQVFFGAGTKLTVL

Positions count from residue 1 of the parent VL; G24K puts K in place of G. The read-out is the apparent dissociation constant on a log10 scale (nM): the lower, the stronger. An entry "ND" has no value in the source: the pair was not observed among the diploids in that replicate. This suggests poor binding but is not conclusive. Background: pairings of library AAYL52 with three empty control strains gave a value in 28% of cases (median 3.91, 5th percentile 2.90). Values in that range, when seen in few replicates, are hard to tell from nonspecific mating.

| # | changes | replicates, log10 nM |
|---|---|---|
| 1 | G24K/A32L/N52G | ND ND ND |
| 2 | A32S/N52W/R90E | 4.33 6.02 ND |
| 3 | N33S/D91F | 4.06 3.64 3.47 |
| 4 | P54S/S89C/V97R | 3.71 ND 4.54 |
| 5 | R53K/S55H | 2.29 2.38 1.75 |
| 6 | S26C/L27P/S55F | ND ND ND |
| 7 | L27F/Y31P/N52C | 2.58 2.11 2.62 |
| 8 | E23I/Y30S/F95V | 1.34 1.31 0.68 |
| 9 | G49H/R90L/S92Y | ND ND 3.13 |
| 10 | Y30S/K50Q/S92K | 0.89 0.78 0.24 |
| 11 | Y29A/A32P/N52Y | 1.88 1.54 1.18 |
| 12 | S26F/L27G/V97M | 4.28 ND 4.04 |
| 13 | Y30V/G49D/D91M | 3.58 ND ND |
| 14 | Y29L/P54M/F98M | 4.10 3.88 ND |
| 15 | N33H/N51F/R53K | ND 3.89 ND |
| 16 | L27E/R28Q/S93L | 2.85 2.28 ND |
| 17 | Y31F/N33I/V97D | 5.50 4.36 ND |
| 18 | A32F/R53C/P54G | ND 4.37 2.98 |
| 19 | R28D/S89I/F98C | 2.41 2.18 2.05 |

The remaining entries, values ahead:

| # | replicates, log10 nM | changes |
|---|---|---|
| 20 | 2.85 3.56 2.71 | R28Q/F95I |
| 21 | ND ND 3.71 | Y29I/D91H/Q96T |
| 22 | 4.54 3.92 3.13 | P54R/S88N/F95G |
| 23 | 3.80 4.17 ND | Y29N/N33G/R90S |
| 24 | ND ND 4.19 | S26C/L27C/R28V |
| 25 | 1.54 1.49 0.99 | Y29F/Y31N |
| 26 | ND ND ND | N33V/N52G/S89A |
| 27 | ND 4.24 ND | A32G/K50W/S55G |
| 28 | ND ND ND | G49W/R90V/F98I |
| 29 | 2.58 2.95 2.78 | N52K/S92L |
| 30 | 2.19 1.98 1.53 | R28D/Y29P/N52M |
| 31 | 4.38 4.75 ND | E23K/S89P |
| 32 | 3.12 2.99 2.72 | N51G/P54M/F98K |
| 33 | 2.49 2.12 2.50 | S26G/S88W/S93W |
| 34 | 1.83 1.67 1.55 | S26D/S88D/S92T |
| 35 | 3.75 4.34 ND | R28H/N33Q |
| 36 | 5.60 4.77 ND | G94L/Q96D/V97H |
| 37 | 3.21 ND ND | L27W/R90S/Q96A |
| 38 | ND ND ND | D25F/A32N/V97R |
| 39 | 3.20 3.86 4.16 | S26A/G49A/G94V |